{"sequences": {"note": "The chains behind the UniProt entries cited, without tags or fusion partners. Where a name states a change or a piece, a line headed by the entry shows the natural chain unless it says otherwise.", "UniProt Q9UGN5": "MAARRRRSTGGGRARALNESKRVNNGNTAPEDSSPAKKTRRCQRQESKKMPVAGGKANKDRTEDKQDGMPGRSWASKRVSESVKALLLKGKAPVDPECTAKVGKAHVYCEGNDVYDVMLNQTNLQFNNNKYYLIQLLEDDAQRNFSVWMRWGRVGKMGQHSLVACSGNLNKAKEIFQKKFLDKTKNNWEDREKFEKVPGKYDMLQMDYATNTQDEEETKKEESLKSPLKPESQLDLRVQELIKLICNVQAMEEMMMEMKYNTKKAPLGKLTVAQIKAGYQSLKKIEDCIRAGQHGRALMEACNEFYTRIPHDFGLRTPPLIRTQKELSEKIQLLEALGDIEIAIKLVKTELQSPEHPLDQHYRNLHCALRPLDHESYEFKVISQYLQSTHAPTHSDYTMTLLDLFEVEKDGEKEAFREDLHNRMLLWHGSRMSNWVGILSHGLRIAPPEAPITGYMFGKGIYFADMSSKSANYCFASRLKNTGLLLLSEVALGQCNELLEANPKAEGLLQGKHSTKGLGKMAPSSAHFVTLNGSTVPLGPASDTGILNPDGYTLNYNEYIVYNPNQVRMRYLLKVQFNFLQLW"}, "source": "paper PMC5766608", "about": "“Target engagement imaging of PARP inhibitors in small-cell lung cancer” (Nature Communications, 2018)", "origin": "cited, not measured here", "biological_target": "T1, PARP2 (Homo sapiens, UniProt Q9UGN5)", "T1 construct": "purchased BPS Bioscience, San Diego, CA", "conditions": "cited from earlier work", "data": [{"smiles": "O=C(COc1cccc2c(=O)[nH]ccc12)c1ccccc1", "note": "[UPF1069]", "values": [{"measurement": "IC50", "value": "300 ± 100", "unit": "nM"}]}]}
